Laboratory results reported in patent US20080182798A1 (published 2008).

Assay: Testing the solubility of salts of Ile-Thia in distilled water
Type: physicochemical
Conditions: H2Odist., visual

Row | Solubility: concentration at complete dissolution [%] | Substance
1 | 3.87 | isoleucyl thiazolidide phosphate
2 | 16.1 | isoleucyl thiazolidide hydrochloride
3 | 17.3 | isoleucyl thiazolidide tartrate
